Earlier results in PMC10629879, “Endocytosis of insulin at the blood-brain barrier” (Frontiers in drug delivery, 2022).

System: blood-brain barrier
Settings: ref Banks et al., 1999; cited from earlier work
From the text: Transport of insulin across the BBB is unidirectional (from blood to brain) ([Duffy and Pardridge, 1987]; [Schwartz et al., 1991]; [Cashion et al., 1996]), occurs in a saturable manner ([Schwartz et al., 1991]; Banks et al., 1997a), can occur independent of the endothelial insulin receptor ([Hersom et al., 2018]; [Rhea et al., 2018]), and varies by brain region ([Banks and Kastin, 1998]). […] Additionally, there are regional differences in the ... || To investigate whether monensin pre-treatment in vivo could impact insulin receptor surface binding, we utilized ^125I-S961, which binds to the insulin receptor with high affinity. […] There were no post-hoc differences.

Substance: insulin
- insulin transport rate of the olfactory bulb relative to the whole brain transport rate (in words): nearly seven times greater
